Laboratory results: patent US6515022B2, “Use of inhaled retinoids in the treatment of lung diseases” (Sloan-Kettering Institute for Cancer Research, priority 1996, dated 2003)
≈ marks a conversion by molar mass, not a printed value.

How the values were obtained:
[1] = solvent HCFC-123 (2,2-dichloro-1,1,1-trifluoroethane)
physchem = details: organic solvent or mixture

SMILES: CC1=C(/C=C/C(C)=C/C=C/C(C)=C/C(=O)O)C(C)(C)CCC1 [all-trans retinoic acid]
- Maximum Solubility [1]: ˜2 mg/ml
- solubility (physchem; 1,1,2-trichlorofluoroethane): ~100 µg/mL (≈ 0.333 mM)
- solubility (physchem; HCFC-123 (2,2-dichloro-1,1,1-trifluoroethane), thermodynamic from solid): 2000 µg/mL (≈ 6.66 mM)
